How the values were obtained:
Assay in all cases: optical trap (harmonic force spectroscopy); single sS1-eGFP molecules held on platform beads by anti-GFP antibody; actin dumbbell between two trapped streptavidin beads; stage oscillation 200 Hz; 2 mM ATP; 25 mM imidazole pH 7.5, 25 mM KCl, 4 mM MgCl2, 1 mM EGTA, 10 mM DTT, 1 mg/mL BSA; 23°C; k0 from the fit of load-dependent detachment …
[1] = molecular target: human β-cardiac myosin short subfragment 1 (sS1-eGFP) with ELC, S782N (human) (UniProt P12883)
[2] = molecular target: human β-cardiac myosin short subfragment 1 (sS1-eGFP) with ELC, L781P (human) (UniProt P12883)
[3] = molecular target: human β-cardiac myosin short subfragment 1 (sS1-eGFP) with ELC, wild type (human) (UniProt P12883)
[4] = molecular target: human β-cardiac myosin short subfragment 1 (sS1-eGFP) with ELC, D778V (human) (UniProt P12883)

- k0 (detachment rate from actin at zero load force) [1]: 145 s^–1
- k0 (detachment rate from actin at zero load force) [2]: 102 s^–1
- k0 (detachment rate from actin at zero load force) [3]: 147 s^–1
- k0 (detachment rate from actin at zero load force) [4]: 316 s^–1
Substance: TMR-phalloidin-labeled biotinylated actin filaments (from UniProt P68135 1-377) (natural protein)

Source: paper PMC9242648
